Laboratory results published in US8278296B2, “Manipulation of brain CDP-diacylglycerol and uses thereof” (priority 2006, dated 2012).

Experiments:
CDP-diacylglycerol = test: [3H]CDP-diacylglycerol accumulation in rat brain slices; type: cell-based; conditions: for effect on [3H]CDP-diacylglycerol accumulation: rat hippocampal, prefrontal cortical and striatal slices, LiCl present, 90 min
phosphatidylinositides = test: [3H]inositol phospholipid (phosphatidylinositide) resynthesis in rat brain slices; type: cell-based; conditions: hippocampus, frontal cortex, striatum slices; 90 min
inositol phosphates = test: [3H]inositol phosphate accumulation in rat brain slices; type: cell-based; conditions: 3-300 μM; hippocampus, frontal cortex, striatum slices
5HT2 receptor = test: α-methylserotonin-stimulated IP accumulation in tissues prelabeled with [3H]inositol in presence of antidepressants; type: cell-based, rat

Row | Structure (SMILES) | effect on [3H]CDP-diacylglycerol accumulation (CDP-diacylglycerol) | effect on [3H]inositol labeling of PIs (phosphatidylinositide synthesis) (phosphatidylinositides) | effect on accumulation of IPs (inositol phosphates) | enhancement of α-Me5HT-induced IP accumulation by prelabeling in presence of antidepressant (5HT2 receptor) | enhancement of α-methylserotonin effects on IP by prelabeling with antidepressant (5HT2 receptor) | lowest concentration with statistically significant CDP-diacylglycerol response (CDP-diacylglycerol; hippocampus slices, posthoc Dunnett test) [µM]
1 | CNCCCN1c2ccccc2CCc2ccccc21 [desipramine] | significantly and dose-dependently enhanced | significantly increased | significantly and dose-dependently stimulated | – | – | –
2 | CNCCC(Oc1ccc(C(F)(F)F)cc1)c1ccccc1 (stereo not drawn) [fluoxetine] | – | – | – | significantly enhanced | concentration-dependently enhanced | –
3 | Fc1ccc([C@@H]2CCNC[C@H]2COc2ccc3c(c2)OCO3)cc1 [paroxetine] | significantly and dose-dependently enhanced | significantly increased | significantly and dose-dependently stimulated | – | – | 30
